# Measurements taken from patent US6784191B2, “Benzamidine derivatives” (Ajinomoto Co., Inc., priority 1999, dated 2004).
# Amino acid sequences for entries named in this document (tags omitted). Residues count along the entry.
# UniProt P00742, 235-488 limits assumed: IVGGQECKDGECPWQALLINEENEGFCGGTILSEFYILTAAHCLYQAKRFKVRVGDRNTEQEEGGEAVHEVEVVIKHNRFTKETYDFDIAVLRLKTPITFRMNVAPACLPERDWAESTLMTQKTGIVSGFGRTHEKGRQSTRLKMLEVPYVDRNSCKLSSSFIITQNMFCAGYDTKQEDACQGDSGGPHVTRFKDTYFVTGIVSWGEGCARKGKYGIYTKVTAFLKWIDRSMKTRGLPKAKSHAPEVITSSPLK
# UniProt P00742, 41-179 partner limits assumed: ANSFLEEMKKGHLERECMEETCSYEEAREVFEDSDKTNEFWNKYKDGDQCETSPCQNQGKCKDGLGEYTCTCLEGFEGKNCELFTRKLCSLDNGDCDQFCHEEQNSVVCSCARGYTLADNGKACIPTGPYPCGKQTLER
# Legend:
# [1] = molecular target: activated human blood coagulation factor X (Homo sapiens, UniProt P00742); test: Determination of activity of inhibiting the activated blood-coagulation factor X (chromogenic substrate, initial rate); settings: negative logarithm of concentration inhibiting 50% of initial rate; tris hydrochloride buffer pH 8.4, room temperature; tested form: bis-TFA
# Procedure: Determination of Activity of Inhibiting the Activated Blood-coagulation Factor X
# 130 μl of 100 mM tris hydrochloride buffer adjusted to pH 8.4 was added to 10 μl of an aqueous solution of a compound to be tested. Then 10 μl of a 0.5 unit/ml solution of activated human blood coagulation factor X (a product of Enzyme Research Co.) in tris hydrochloride buffer of pH 8.4 was added to the resultant mixture. After the incubation at room temperature for 10 minutes, 50 μl of a solution of N-benzoyl-L-isoleucine-L-glutamine-glycine-L-arginine-P-nitroanilide hydrochloride (a product of Peptide Institute Inc.) adjusted to 0.8 mM with tris hydrochloride (pH 8.4) was added thereto. The absorbance was determined and then the initial reaction rate was determined. A control was prepared in the same manner as that described above except that the solution of the compound to be tested was replaced with 10 μl of tris hydrochloride buffer adjusted to pH 8.4. The absorbance was determined with MICROPLATE READER Model 3550-UV (a product of BIO RAD) at a wave length of 405 nm at intervals of 15 seconds for 16 minutes. […]
# human thrombin = human thrombin (Homo sapiens, UniProt P00734); test: Determination of thrombin-inhibiting activity (S-2238 chromogenic substrate, initial rate); settings: negative logarithm of concentration inhibiting 50% of initial rate; tris hydrochloride buffer pH 8.4, room temperature; tested form: bis-TFA
# Procedure: Determination of Thrombin-Inhibiting Activity
# 130 μl of 100 mM tris hydrochloride buffer adjusted to pH 8.4 was added to 10 μl of an aqueous solution of a test compound. Then 10 μl of a solution of human thrombin (a product of SIGMA Co.) adjusted to 2 units/ml with tris hydrochloride buffer of pH 8.4 was added to the resultant mixture. After the incubation at room temperature for 10 minutes, 50 μl of a solution of D-phenylalanine-L-pipecolyl-L-arginine-P-nitroanilide dihydrochloride (S-2238; a product of Daiichi Kagaku Yakuhin Co.) adjusted to 0.4 mM with tris hydrochloride buffer of pH 8.4 was added thereto. The absorbance was determined and then the initial reaction rate was determined. A control was prepared in the same manner as that described above except that the solution of the compound to be tested was replaced with 10 μl of tris hydrochloride buffer adjusted to pH 8.4. The absorbance was determined with MICROPLATE READER Model 3550-UV (a product of […]) at a wave length of 405 nm at intervals of 15 seconds for 16 minutes. The negative logarithm (pIC50) of a concentration of the test compound which inhibits 50% of the activity (initial rate) of the thrombin in the absence of the test compound was determined, and employed as the index of the activity of inhibiting thrombin.
Structure (SMILES),Activity of inhibiting activated blood coagulation factor X (pIC50) [1],Thrombin-inhibiting activity (pIC50) (human thrombin)
CCOP(=O)(CCc1ccc(C(=N)N)cc1OCCNC(=O)C1CCN(c2ccncc2)CC1)OCC,6.9,4.3
CCOP(=O)(O)CCc1ccc(C(=N)N)cc1OCCNC(=O)C1CCN(c2ccncc2)CC1,7.4,3.9
